From publication PMC11405395 (The EMBO Journal, 2024) come the findings set out here.

The target of this assay is T1, Homo sapiens DNA polymerase ε (POLE1, POLE2, POLE3, POLE4) (human, UniProt Q07864 1-2286; P56282 1-527; Q9NRF9 1-147; Q9NR33 1-117).
T1 construct: POLE1 (catalytic subunit of DNA polymerase ε), human; POLE2 (homologue of budding yeast Dpb2), human (PolE2_tev_2XFLAG; tag removed with TEV protease); POLE3, human; POLE4, human; The methods call the removed tag 3FLAG, the strain and plasmid 2XFLAG; also called hsPOL ε; POL ε; source: S. cerevisiae strain ySP061, purified (anti-FLAG M2 resin, TEV cleavage, MonoQ, Superdex 200); not shown: …
The assay can be described thus: co-IP; purified proteins mixed: 10 nM RTEL1-FLAG with 15 nM hsPol ε, 10 min on ice; anti-FLAG M2 magnetic beads; 25 mM Hepes-KOH pH 7.6, 200 mM KOAc, 0.02% NP-40-S, 0.1 mg/mL BSA, 1 mM DTT, 10 mM Mg(OAc)2; immunoblotting. The settings on record: both partners purified. A general note: A western blot detects proteins with antibodies after separation by electrophoresis.

B1: Homo sapiens RTEL1 (wild-type, FLAG-tagged) (enzyme, human, UniProt Q9NZ71-1 1-1219, looked up)
chain: MPKIVLNGVTVDFPFQPYKCQQEYMTKVLECLQQKVNGILESPTGTGKTLCLLCTTLAWREHLRDGISARKIAERAQGELFPDRALSSWGNAAAAAGDPIACYTDIPKIIYASRTHSQLTQVINELRNTSYRPKVCVLGSREQLCIHPEVKKQESNHLQIHLCRKKVASRSCHFYNNVEEKSLEQELASPILDIEDLVKSGSKHRVCPYYLSRNLKQQADIIFMPYNYLLDAKSRRAHNIDLKGTVVIFDEAHNVEKMCEESASFDLTPHDLASGLDVIDQVLEEQTKAAQQGEPHPEFSADSPSPGLNMELEDIAKLKMILLRLEGAIDAVELPGDDSGVTKPGSYIFELFAEAQITFQTKGCILDSLDQIIQHLAGRAGVFTNTAGLQKLADIIQIVFSVDPSEGSPGSPAGLGALQSYKVHIHPDAGHRRTAQRSDAWSTTAARKRGKVLSYWCFSPGHSMHELVRQGVRSLILTSGTLAPVSSFALEMQIPFPVCLENPHIIDKHQIWVGVVPRGPDGAQLSSAFDRRFSEECLSSLGKALGNIARVVPYGLLIFFPSYPVMEKSLEFWRARDLARKMEALKPLFVEPRSKGSFSETISAYYARVAAPGSTGATFLAVCRGKASEGLDFSDTNGRGVIVTGLPYPPRMDPRVVLKMQFLDEMKGQGGAGGQFLSGQEWYRQQASRAVNQAIGRVIRHRQDYGAVFLCDHRFAFADARAQLPSWVRPHVRVYDNFGHVIRDVAQFFRVAERTMPAPAPRATAPSVRGEDAVSEAKSPGPFFSTRKAKSLDLHVPSLKQRSSGSPAAGDPESSLCVEYEQEPVPARQRPRGLLAALEHSEQRAGSPGEEQAHSCSTLSLLSEKRPAEEPRGGRKKIRLVSHPEEPVAGAQTDRAKLFMVAVKQELSQANFATFTQALQDYKGSDDFAALAACLGPLFAEDPKKHNLLQGFYQFVRPHHKQQFEEVCIQLTGRGCGYRPEHSIPRRQRAQPVLDPTGRTAPDPKLTVSTAAAQQLDPQEHLNQGRPHLSPRPPPTGDPGSQPQWGSGVPRAGKQGQHAVSAYLADARRALGSAGCSQLLAALTAYKQDDDLDKVLAVLAALTTAKPEDFPLLHRFSMFVRPHHKQRFSQTCTDLTGRPYPGMEPPGPQEERLAVPPVLTHRAPQPGPSRSEKTGKTQSKISSFLRQRPAGTVGAGGEDAGPSQSSGPPHGPAASEWGL
notes: RTEL1, human; the models and residue numbers are of isoform 1 (NP_057518.1), printed to residue 1219; Plasmid pTD195; The isoform is printed for the AlphaFold models; the deletion mutants use the same numbering; also called hsRTEL1; RTEL1-2FLAG; source: S. cerevisiae strain yOO1, purified (anti-FLAG M2 resin, HiLoad Superdex 200); not shown: 2XFLAG, C-terminal, kept
As for B1, the binding result is “binds”.
